Results as given in US20060052303A1, “Use of thyrotropin for regeneration of bone” (priority 2004, published 2006).

Chains of the proteins cited; added tags and fusions are not shown. Residues count along the entry.
UniProt P16473, 21-764: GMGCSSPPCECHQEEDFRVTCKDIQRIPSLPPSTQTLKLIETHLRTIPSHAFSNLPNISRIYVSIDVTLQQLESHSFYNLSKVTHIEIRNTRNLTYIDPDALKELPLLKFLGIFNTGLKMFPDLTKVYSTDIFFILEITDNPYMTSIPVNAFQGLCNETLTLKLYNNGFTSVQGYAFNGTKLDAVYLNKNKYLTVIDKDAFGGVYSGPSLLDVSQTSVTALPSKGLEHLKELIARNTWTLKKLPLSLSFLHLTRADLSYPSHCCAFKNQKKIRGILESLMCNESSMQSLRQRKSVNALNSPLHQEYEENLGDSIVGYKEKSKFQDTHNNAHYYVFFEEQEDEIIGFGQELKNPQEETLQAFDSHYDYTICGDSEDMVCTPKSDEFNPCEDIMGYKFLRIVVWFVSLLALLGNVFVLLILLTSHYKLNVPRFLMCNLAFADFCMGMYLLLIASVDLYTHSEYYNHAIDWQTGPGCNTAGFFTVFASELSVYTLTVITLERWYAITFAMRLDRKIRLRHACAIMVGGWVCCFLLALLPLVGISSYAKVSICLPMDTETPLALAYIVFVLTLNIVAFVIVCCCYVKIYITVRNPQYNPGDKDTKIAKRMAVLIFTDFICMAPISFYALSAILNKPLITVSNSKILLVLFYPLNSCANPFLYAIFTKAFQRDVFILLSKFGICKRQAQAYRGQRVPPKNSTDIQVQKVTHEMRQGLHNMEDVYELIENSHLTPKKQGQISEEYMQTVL

What was measured:
[1] = tested on: bovine thyroid membrane preparation; assay: Membrane-based TSH specific activity assay (cAMP by RIA); assay type: biochemical; settings: tested against human TSH reference standard (WHO) in membrane-based specific activity assay
Description: Thyroid membrane preparation—The technique for preparing bovine thyroid membrane is based on a method described in Pekonen et al. (1980) J. Biol. Chem., 255:8121-8127. Calf thyroid glands are minced in 20 mM Tris HCl, 1 mM EDTA, pH 7.4. The minced tissue is homogenized in a single-speed VWR blender for 1 min and then filtered through cheesecloth. The homogenate is then centrifuged at 1000×g for 10 min at 4° C. and the pellet is discarded. The supernatant is removed and centrifuged at 10 000×g for 30 min at 4° C. The resulting pellet is resuspended in 20 mM Tris HCl, 1 mM EDTA, pH 7.4 and then centrifuged again at 10 000×g for 30 min. The pellet was resuspended and centrifuged at 18 000×g for 30 min. This may be repeated once more and, after quantification using BioRad Protein Assay according to the manufacturer's instructions, the pellet is resuspended to a final concentration of 1.25 mg/ml in 0.25 M sucrose, 20 mM Tris HCl, 1 mM EDTA, pH 7.4. The thyroid preparation is pulsed briefly in the blender, aliquotted, and then stored at less than −70° C.
Membrane-based TSH specific activity assay—Reference and test samples are analyzed at three levels. […] Cyclic AMP is quantified by RIA according to the manufacturer's recommendations (NEN).

[2] = target: T1, TSH receptor (Homo sapiens, UniProt P16473); assay: Cell-based TSH potency assay (CHO cell line with TSH receptor and cAMP-responsive luciferase reporter)
T1 construct: host or cells: CHO
Description: The biological activity of thyrotropin alfa is determined by a cell-based assay. In this assay, cells expressing a functional thyrotropin receptor and a cAMP-responsive element coupled to a heterologous reporter gene, such as, for example, luciferase, are utilized. The measurement of the reported gene expression provides an indication of thyrotropin activity. The specific activity of thyrotropin alfa is determined relative to a reference material that is calibrated against the World Health Organization (WHO) human pituitary derived thyrotropin reference standard NIBSC 84/703 using an in vitro assay that measures the amount of cAMP produced by a bovine thyroid microsome preparation in response to thyrotropin alfa. The specific activity of thyrotropin alfa is typically in the range of 4-12 lU/mg as determined by a cell-based assay. […]
Cell-based TSH potency assay—Cells are seeded at 30 000 cells/well in growth medium in a 96-well tissue culture plate (Costar), excluding outside wells, to which medium is added. […] Intracellular luciferase activity is determined using the Luciferase Assay Reagent Kit (Promega, Madison, Wis., U.S.A.) according to the manufacturer's recommendations. Luminescence was measured on a Wallac Microlumat Plus LB 96 V luminometer.

[3] = tested on: ovariectomized (OVX) rats; assay: Treatment of osteopenia in ovariectomized rats with Thyrogen (Example 2A); assay type: in vivo, Sprague-Dawley female rats
Description: Seventy two 4 months old Sprague-Dawley female rats, weighting approximately 300 g were used in this study. The rats were kept in standard conditions (24° C. and 12 h/12 h light-dark cycle) in 20×32×20 cm cages during experiment. All animals had allowed free access to water and pelleted commercial diet (Harlan Teklad) containing 1,00% calcium, 0,65% phosphorus and 2,40 KlU of Vitamin D3 per kilogram.
Twelve animals were sham operated, while sixty were ovariectomized (OVX) bilaterally by abdominal approach. Treatment started immediately after ovariectomy as follows: (1) SHAM; (2) OVX+vehicle daily; (3) OVX+0.7 μg thyrotropin daily; (4) OVX+7 μg thyrotropin; (5) OVX+70 μg thyrotropin daily; (6) OVX+17β-estradiol 3 times a week. Animals were treated for 8 weeks (before DEXA analysis). Thyrogen® used in this study had specific activity of 7 lU/mg.
Animals were scanned at the beginning of therapy and than every two weeks during eight weeks of therapy using dual energy absorptiometry (DXA, HOLOGIC QDR-4000) equipped with Small Animal software. Prior to scan animals were anaesthetized with Thiopental (Nycomed).
Total body scans were performed and bone mineral density (BMD), bone mineral content (BMC) of lumbar vertebrae, of hind limbs, total body, and total body with head excluded were determined.
For urine collection animals were placed in metabolic cages and deprived of food for an overnight period of 18 hours. Blood was taken from orbital plexus. Blood and urine was collected at the beginning of therapy and than every two weeks during eight weeks of therapy.
Sacrifice started 8 weeks after the beginning of therapy in ether anesthesia. Bones were collected for histology.
After sacrifice, femora, tibiae and lumbar vertebrae were harvested and scanned, and BMD and BMC of whole bone and its parts were measured

[4] = tested on: postmenopausal women; assay: Prospective clinical trial for treatment of osteoporosis (Example 4); assay type: in vivo, human; settings: expected
Source text: This Example describes a prospective clinical trial for treatment of osteoporosis with a TSHR agonist in humans. […] A TSHR agonist, e.g., thyrotropin or its analogues will be administered (e.g., daily, weekly, or biweekly) systemically (e.g., intravenous, subcutaneous, intramuscular, oral, or transdermal routes). Subjects will receive have Dose I (low) or Dose II (high) of the TSHR antagonist or placebo, which will be made available systemically.
Vertebral radiographs at base line and by the end of the study (median duration of observation, 24 months) will be performed. Serial measurements of bone mass by dual-energy x-ray absorptiometry (BMD) at 6 months intervals will be performed. Biochemical markers for bone formation and bone resorption will be determined in blood and urine at 3-6 months intervals. The subjects will be monitored for subsequent fractures (both vertebral and non-vertebral), if any, during the completion of the study.
Data will be analyzed for all women with at least one follow-up visit after enrollment. The rates of side effects and the proportions of women with fractures in the three study groups will be compared with the use of Pearson's chi-square test. All laboratory data and bone mineral measurements will be evaluated by analysis of variance, with the inclusion of terms for the treatment assignment and country. The statistical tests will be two-sided.

[5] = 0.7 and 7 μg, compared to OVX animals, after 8 weeks
[6] = thyrotropin treated groups vs OVX animals

Row | Substance | nominal specific activity assigned to reference material [1] [lU/mg] | specific activity ([2]; cell-based assay, relative to reference calibrated against WHO NIBSC 84/703) | specific activity of Thyrogen used in this study ([2]; material used in Example 2A, assay not stated at place) [lU/mg] | BMD of hind limbs (including hip), in vivo ([3]; 0.7 μg/rat daily, weeks 6 and 8, compared to OVX) | BMD of hind limbs, statistical significance ([3]; 0.7 μg/rat, 6 weeks) | action on bone remodeling at higher doses ([3]; 70 μg/rat) | BMD of proximal femur relative to sham, ex vivo DEXA ([3]; 0.7 and 7 μg) | BMD of distal femur, ex vivo DEXA [3, 5] | BMD of proximal femur, ex vivo DEXA [3, 5] | vertebrae BMD, in vivo ([3]; 6 weeks) | body weight ([3]; between experimental groups) | side-effects ([3]; rat, in vivo) | loss of bone following estrogen deficiency ([3]; systemic administration to ovariectomized rats immediately following surgery) | BMD of lumbar spine, ex vivo DEXA [3, 6] | BMD of tibia, ex vivo DEXA [3, 6] | risk of vertebral and non-vertebral fractures [4] | tolerability [4] | vertebral, femoral, and total-body bone mineral density [4]
1 | rhTSH: rhTSH reference material of the cell-based TSH potency assay, tested against the WHO human TSH reference standard | 5.3 | – | – | – | – | – | – | – | – | – | – | – | – | – | – | – | – | –
2 | thyrotropin alfa [Thyrogen®] | – | 4-12 lU/mg | 7 | increased BMD | statistically significant level | more resorptive than anabolic | reached sham values | statistically significant increase | statistically significant increase | influence vertebrae BMD positively | no significant differences | no observed side-effects | effective in slowing the loss of bone | a trend but no statistical differences | a trend but no statistical differences | decrease | well tolerated | increase
